Experiment [1] deals with T1, mouse big-ET-1 (mouse).
T1 construct: also called mBig-ET-1
T1 peptide: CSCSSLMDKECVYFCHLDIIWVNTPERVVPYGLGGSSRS
The experiment is described as follows: SPR (Biacore T200), 37 C, mAb capture, peptide analyte. On the procedure:
(§1) Measurements were conducted on a T200 Biacore instrument (Biacore Life Sciences division of GE Healthcare, Piscataway, N.J.). The Biacore sensor surface was derivatized with a rabbit anti-mouse for hybridoma capture (prefix H1M or H2M) or a mouse anti-human Fc surface for human IgG formatted antibodies (prefix H4H). […] Peptide binding was monitored for 3 min while dissociation of mAb-bound peptide was monitored for 4 min in HBST running buffer (0.01 M HEPES pH 7.4, 0.15 M NaCl, 3 mM EDTA, 0.005% v/v Surfactant P20). Kinetic association (kₐ) and dissociation (kd) rate constants were determined by processing and fitting the data to a 1:1 binding model using Scrubber 2.0 curve fitting software.
A general note: In SPR one partner is held on a chip, and binding of the other changes the refractive index at the surface.

The target in experiment [2] is T2, human big-endothelin-1 (big-ET-1) (human).
T2 construct: 38 amino acid peptide; also called human big-ET-1; hBig-ET-1
T2 peptide: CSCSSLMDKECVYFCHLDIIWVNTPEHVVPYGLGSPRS
Described as above. On the procedure:
as §1

Experiment [3] concerns the target T1, mouse big-ET-1. Put plainly: cell-based or functional assay.
The target of experiment [4] is T2, human big-endothelin-1 (big-ET-1). Put plainly: cell-based or functional assay.

Where a chain is given by its changes, count along the chain named. Numbers in names are those of the source.

B1: H4H6338P (antibody, V domains shown)
VH: EVQLVESGGGLVQPGGSLRLSCAASGFAFSSYAMTWVRQTPGKGLEWVSSISGSGGSTYYADSVKGRFTISRDNSKNTLYLQMNSLRAEDTAVYYCAKARTGTHAFDIWGQGTMVTVSS
VL: not shown
notes: Human IgG4 Fc (prefix H4H)
What is called Kd is a measure of binding affinity in units of concentration. A lower Kd goes with higher affinity. Consider B1, for which the Kd amounted to 4660 nM in experiment [1] and 265 nM in experiment [2]. The “Blocking IC50(M), 20 nM mBig-ET-1 + 5 nM mECE1; 293/ETaR/NFAT-Luc luciferase” value in experiment [3] came out at 8.9e-09 M. In experiment [4], the “Blocking IC50(M), 10 nM hBig-ET-1 + 3 nM hECE1; 293/ETaR/NFAT-Luc luciferase” value was 2.8e-08 M.

B2: H4H6343P (antibody, V domains shown)
VH: B1 VH with V5L, A28T, T35S, T40A, S50A, G56V, S57G, A97P
VL: not shown
notes: Human IgG4 Fc (prefix H4H)
For B2, the Kd in experiment [1] is 25.2 nM; in experiment [2], 11.2 nM. Moreover, in experiment [3], the “Blocking IC50(M), 20 nM mBig-ET-1 + 5 nM mECE1; 293/ETaR/NFAT-Luc luciferase” value was 8.2e-10 M. For the same molecule, the “Blocking IC50(M), 10 nM hBig-ET-1 + 3 nM hECE1; 293/ETaR/NFAT-Luc luciferase” value in experiment [4] turned out to be 1.2e-09 M.

For the origin of these results see US20130216547A1 (Regeneron, published 2013).
